## Membrane permeability of cyclic peptides

Data: CycPeptMPDB; original report Townsend et al. 2020, doi:10.26434/chemrxiv.13335941.v1.

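The data file gives no further conditions (lipid, pH, time, direction or concentration), and values from different papers need not be comparable. The list need not hold all peptides of the study. Entries at the database's floor value (log10 P of -10) are not listed.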

PAMPA is the parallel artificial membrane permeability assay, which has no cells and reads passive diffusion.
Values are log10 P with P in cm/s, so -5 is more permeable than -7.

SMILES,PAMPA (log10 cm/s)
CC(C)C[C@@H]1NC(=O)[C@@H]2CCCN2C(=O)[C@@H](CC(C)C)N(C)C(=O)[C@@H](CC(C)C)NC(=O)[C@H](C)NC(=O)[C@H](Cc2ccccc2)NC1=O,-6.31
CC(C)C[C@H]1C(=O)N(Cc2ccccc2)CC(=O)N2CCC[C@@H]2C(=O)N(C)[C@@H](CC(C)C)C(=O)N[C@@H](Cc2ccccc2)C(=O)N[C@@H](C)C(=O)N1C,-6.20
CC(C)C[C@@H]1NC(=O)[C@@H](C)N(C)C(=O)[C@H]2CCCN2C(=O)[C@H](Cc2ccccc2)NC(=O)[C@@H](CC(C)C)N(C)C(=O)[C@H]2CCCN2C(=O)[C@H](CC(C)C)NC1=O,-5.94
CC(C)C[C@@H]1C(=O)N2CCC[C@@H]2C(=O)N(Cc2ccccc2)CC(=O)N[C@@H](Cc2ccccc2)C(=O)N2CCC[C@@H]2C(=O)N(C)[C@@H](C)C(=O)N[C@H](CC(C)C)C(=O)N1C,-5.36
CC(C)C[C@@H]1NC(=O)[C@H](C)N(C)C(=O)[C@H](Cc2ccccc2)NC(=O)[C@@H](CC(C)C)N(C)C(=O)[C@H]2CCCN2C(=O)CN(Cc2ccccc2)C1=O,-5.68
CC(C)C[C@@H]1NC(=O)[C@H](C)NC(=O)[C@H](Cc2ccccc2)NC(=O)CN(Cc2ccccc2)C(=O)[C@@H]2CCCN2C(=O)CN(Cc2ccccc2)C1=O,-5.95
CCCN1CC(=O)N(C)[C@H](CC(C)C)C(=O)N[C@@H](Cc2ccccc2)CC(=O)N2CCC[C@H]2C(=O)N[C@H](CC(C)C)C(=O)N[C@@H](Cc2ccccc2)C(=O)N2CCC[C@H]2C1=O,-5.40
CC(C)C[C@@H]1NC(=O)C[C@H](Cc2ccccc2)NC(=O)[C@@H]2CCCN2C(=O)[C@H](Cc2ccccc2)NC(=O)[C@H](CC(C)C)N(C)C(=O)[C@@H]2CCCN2C(=O)[C@H](CC(C)C)NC1=O,-5.57
CC(C)C[C@H]1C(=O)N[C@@H](Cc2ccccc2)C(=O)N2CCC[C@H]2C(=O)N[C@@H](Cc2ccccc2)CC(=O)N(Cc2ccccc2)CC(=O)N[C@@H](Cc2ccccc2)CC(=O)N2CCC[C@@H]2C(=O)N1C,-5.73
CC(C)C[C@@H]1C(=O)N(C)[C@H](CC(C)C)C(=O)N2CCC[C@H]2C(=O)N(C)[C@H](CC(C)C)C(=O)N[C@@H](Cc2ccccc2)C(=O)N2CCC[C@H]2C(=O)N(C)[C@H](C)C(=O)N1C,-5.08
CCCN1CC(=O)N(C)[C@H](CC(C)C)C(=O)N[C@H](CC(C)C)C(=O)N2CCC[C@@H]2C(=O)N[C@@H](CC(C)C)C(=O)N[C@@H](Cc2ccccc2)C1=O,-5.30
CC(C)C[C@H]1NC(=O)[C@H]2CCCN2C(=O)CN(Cc2ccccc2)C(=O)[C@H](CC(C)C)N(C)C(=O)C[C@H](Cc2ccccc2)NC(=O)[C@@H]2CCCN2C(=O)[C@H](Cc2ccccc2)NC1=O,-5.84
CC(C)C[C@@H]1NC(=O)[C@@H](C)NC(=O)[C@H]2CCCN2C(=O)[C@H](Cc2ccccc2)NC(=O)[C@H](CC(C)C)N(C)C(=O)[C@@H]2CCCN2C(=O)[C@@H](CC(C)C)N(C)C1=O,-5.61

The last 2 entries again:

SMILES,PAMPA (log10 cm/s)
CC(C)C[C@H]1NC(=O)[C@H]2CCCN2C(=O)CN(Cc2ccccc2)C(=O)[C@H](CC(C)C)N(C)C(=O)C[C@H](Cc2ccccc2)NC(=O)[C@@H]2CCCN2C(=O)[C@H](Cc2ccccc2)NC1=O,-5.84
CC(C)C[C@@H]1NC(=O)[C@@H](C)NC(=O)[C@H]2CCCN2C(=O)[C@H](Cc2ccccc2)NC(=O)[C@H](CC(C)C)N(C)C(=O)[C@@H]2CCCN2C(=O)[C@@H](CC(C)C)N(C)C1=O,-5.61